In ChEMBL document CHEMBL4184175, “Design, synthesis and biological evaluation of novel indole-xanthendione hybrids as selective estrogen receptor modulators” (Bioorg Med Chem, 2018):

System: T47D
Test: Antiproliferative activity against human T47D cells after 48 hrs by MTT assay
Assay type: functional, cell-based

| SMILES | Activity |
| --- | --- |
| CC1(C)CC(=O)C2=C(C1)OC1=C(C(=O)CCC1(C)C)C2c1cc2ccccc2n1Cc1ccccc1 (centres undefined) | Dose-dependent effect |
| CC1(C)CC(=O)C2=C(C1)OC1=C(C(=O)CCC1)C2c1cc2ccccc2n1Cc1ccccc1 (centres undefined) | Dose-dependent effect |
| O=c1[nH]c2c(c(=O)[nH]1)C(c1cc3ccccc3n1Cc1ccccc1)c1c([nH]c(=O)[nH]c1=O)O2 | Dose-dependent effect |
| CC1CC(=O)C2=C(C1)OC1=C(C(=O)CCC1)C2c1cc2ccccc2n1Cc1ccccc1 (centres undefined) | Dose-dependent effect |
| CC1(C)CC(=O)C2=C(C1)OC1=C(C(=O)CC(C)(C)C1)C2c1cc2ccccc2n1Cc1ccccc1 | Dose-dependent effect |
| CC1CC(=O)C2=C(C1)OC1=C(C(=O)CC(C)(C)C1)C2c1cc2ccccc2n1Cc1ccccc1 (centres undefined) | Dose-dependent effect |
| CC1CC(=O)C2=C(C1)OC1=C(C(=O)CCC1(C)C)C2c1cc2ccccc2n1Cc1ccccc1 (centres undefined) | Dose-dependent effect |
| CC1(C)CCC(=O)C2=C1OC1=C(C(=O)CCC1)C2c1cc2ccccc2n1Cc1ccccc1 (centres undefined) | Dose-dependent effect |
| O=C1CCC2=C1C(c1cc3ccccc3n1Cc1ccccc1)C1=C(CCC1=O)O2 | Dose-dependent effect |
